# Antibody variant affinities, Ab-14 light chain, assay 1

Source: Engelhart et al. 2022 (doi:10.1038/s41597-022-01779-4), MIT Lincoln Laboratory and A-Alpha Bio; data file from the FLAb repository.

All variants were tested on one target, the spike HR2 peptide PDVDLGDISGINAS (SARS-CoV-2).

The variants keep the heavy chain, the linker and the frameworks of Ab-14 (scFv order VH, three GGGGS repeats, VL).
VH: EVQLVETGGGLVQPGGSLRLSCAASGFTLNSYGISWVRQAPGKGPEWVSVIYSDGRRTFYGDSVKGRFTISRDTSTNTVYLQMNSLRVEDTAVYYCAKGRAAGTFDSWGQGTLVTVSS
VL: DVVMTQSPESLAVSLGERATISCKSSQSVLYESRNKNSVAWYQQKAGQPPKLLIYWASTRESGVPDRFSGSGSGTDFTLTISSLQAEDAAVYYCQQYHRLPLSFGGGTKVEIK

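In library AAYL50, one, two or three CDR residues were substituted; doubles and triples were drawn at random. Affinity was read by AlphaSeq, a pooled yeast mating assay with surface-displayed partners. Binding brings cells together so that they mate, and sequencing counts the barcode pairs among the diploids. Scores were corrected for input abundance and mapped to Kd with protein pairs of known affinity run in the same pool. There are three technical replicates.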

Changes read parent residue, position, new residue, counted from the first residue of the VL shown. This list gathers variants with a substitution at N35 (VL, numbered from residue 1). Numbers give log10(Kd / nM), so 0 is 1 nM and 3 is 1 µM. Smaller is tighter. A mean of the replicates is given; it leaves out those without a signal. An entry "no signal" has no value in the source: the pair was not observed among the diploids in any replicate. This suggests poor binding but is not conclusive. In this assay the parent's reference entry averaged 0.65; its copy inside this library read 1.68.

The variant K24C R34H N35C gave 2.55 (3 of 3 replicates). With N35G S38K the result was 4.96 (1 of 3 replicates). The variant N35W N37A A40Y showed no signal (0 of 3 replicates). With L30K N35H E61W the result was 0.89 (3 of 3 replicates). The variant N35Q W56N A57F showed 0.94 (3 of 3 replicates). For S26F N35E L102K, the assay gave no signal (0 of 3 replicates). The variant N35C Q96G H98N gave no signal (0 of 3 replicates). With N35A K36R V39F the result was 3.51 (3 of 3 replicates). The variant S26P N35C W56A gave 0.39 (3 of 3 replicates).

The variant K24I N35G R99E gave 1.53 (3 of 3 replicates). With E32C N35V L100C the result was no signal (0 of 3 replicates). For S33Y N35M A40M, the assay gave no signal (0 of 3 replicates). The variant N35L T59I Q96V showed 2.84 (3 of 3 replicates). For N35Y V39Q Q96T, the assay gave no signal (0 of 3 replicates). The variant S33Y N35E gave 3.41 (3 of 3 replicates). For L30V N35I S38R, the assay gave 2.19 (3 of 3 replicates). With S33T N35K V39S the result was 3.56 (1 of 3 replicates). For V29S N35M E61M, the assay gave 0.79 (3 of 3 replicates).

With N35I Y97P L102A the result was 4.81 (1 of 3 replicates). The variant K24E N35Y S38D showed 3.64 (3 of 3 replicates). For S28M N35C A40P, the assay gave no signal (0 of 3 replicates). The variant N35H S58L T59Y showed 4.26 (2 of 3 replicates). The variant N35T T59K Q96M showed 4.14 (2 of 3 replicates). For N35D N37E T59A, the assay gave 2.53 (3 of 3 replicates). For L30K N35V S58I, the assay gave no signal (0 of 3 replicates). With N35V S62M S103L the result was 5.17 (2 of 3 replicates). The variant Q27Y N35L showed 1.46 (3 of 3 replicates).

For N35W Q95L Y97M, the assay gave no signal (0 of 3 replicates). The variant N35G A57Y Q95P gave 5.13 (1 of 3 replicates). For K24F N35V S58Y, the assay gave 3.75 (1 of 3 replicates). With R34F N35V S58P the result was no signal (0 of 3 replicates). For N35Q Q95L L102W, the assay gave 5.39 (2 of 3 replicates). With N35P S38W Q96A the result was no signal (0 of 3 replicates). The variant N35L T59P showed no signal (0 of 3 replicates). For N35M S38G Q96T, the assay gave no signal (0 of 3 replicates). The variant Q27Y S28M N35C gave 2.39 (1 of 3 replicates).

The variant Y31F N35L Y97D gave no signal (0 of 3 replicates). With R34C N35T H98G the result was 2.33 (3 of 3 replicates). For Y31Q N35E P101G, the assay gave 1.49 (3 of 3 replicates). With N35A P101N the result was 1.50 (3 of 3 replicates). For N35V E61R R99Q, the assay gave 2.84 (2 of 3 replicates). For N35E K36A S103E, the assay gave 0.70 (3 of 3 replicates). With S26Y N35V V39D the result was 4.65 (1 of 3 replicates). The variant K24W N35D P101R gave 3.03 (3 of 3 replicates). The variant N35W K36R P101C gave 1.72 (3 of 3 replicates).

A selection of 7 entries from above:

The variant N35D N37E T59A gave 2.53 (3 of 3 replicates).
The variant S33Y N35M A40M gave no signal (0 of 3 replicates).
The variant K24E N35Y S38D gave 3.64 (3 of 3 replicates).
The variant S26Y N35V V39D gave 4.65 (1 of 3 replicates).
The variant L30K N35H E61W gave 0.89 (3 of 3 replicates).
The variant R34C N35T H98G gave 2.33 (3 of 3 replicates).
The variant N35A K36R V39F gave 3.51 (3 of 3 replicates).

Nonspecific signal, from three strains lacking the peptide, appeared in 18% of pairings of library AAYL50, centred on 4.19 (5% of these signals below 2.99); values are not corrected for it.